Results: patent publication US20240376427A1, “COMPOSITIONS AND SYSTEMS COMPRISING THREE-DIMENSIONAL NERVE CELL CULTURES AND METHODS OF USING THE SAME” (THE ADMINISTRATORS OF THE TULANE EDUCATIONAL FUND, priority 2021, published 2024)

Experiments:
DRG-SCDH cocultures [1] = format: cell-based, rat
DRG-SCDH cocultures [2] = details: for reversibility of analgesic effect by washout: 60-minute washout after 1 mM lidocaine / 10 uM clonidine / 500 uM morphine
[3] = test system: embryonic rat DRG-SCDH cocultures; format: cell-based
[4] = N1-matched traces, lowest effective dose vs sham, n=4
[5] = amplitude-matched 40V analgesic trace vs pretreatment trace, lowest effective dose
[6] = qualitative dose-response, increasing doses
[7] = unbiased analysis, stimulus intensity 0 to 40V, vs sham

N#Cc1cc2c(cc1[N+](=O)[O-])=NC(=O)C(=O)N=2.O.[Na].[Na] [CNQX, 6-Cyano-7-nitroquinoxaline-2,3-dione disodium salt hydrate]
N1 (fiber volley) peak of synaptic waveform (DRG-SCDH cocultures [1]): no effect
N2 population spike amplitude (DRG-SCDH cocultures [1]): significantly reduced
P1 wave amplitude (DRG-SCDH cocultures [1]): significantly reduced

O=C(O)CN(CCN(CC(=O)O)CC(=O)O)CC(=O)O [EDTA, ethylenediaminetetraacetic acid]
N1 (fiber volley) peak of synaptic waveform (DRG-SCDH cocultures [1]): no effect
N2 population spike amplitude (DRG-SCDH cocultures [1]): completely blocked
P1 wave amplitude (DRG-SCDH cocultures [1]): completely blocked

CN1CCc2cc3c(cc2[C@H]1[C@@H]1OC(=O)c2c1ccc1c2OCO1)OCO3 [bicuculline, (+)-bicuculline]
N1 (fiber volley) peak of synaptic waveform (DRG-SCDH cocultures [1]): no effect
N2 population spike amplitude (DRG-SCDH cocultures [1]): no effect

Clc1cccc(Cl)c1N=C1NCCN1 [clonidine]
reversibility of analgesic effect by washout (DRG-SCDH cocultures [2]): Electrical activity is again detectable
N2 amplitude (DRG-SCDH cocultures [2]; [4]): trending decrease
P1 amplitude (DRG-SCDH cocultures [2]; [4]): preferentially decreased
early phase of P1 (AUC) (DRG-SCDH cocultures [2]; [4]): uniquely decreased
N1 sensitivity: percent change in stimulus intensity required to evoke N1 peak of similar magnitude (DRG-SCDH cocultures [2]; [5]): no significant effect
N2 sensitivity (change in required stimulus intensity) (DRG-SCDH cocultures [2]; [5]): primarily desensitized
P1 sensitivity (change in required stimulus intensity) (DRG-SCDH cocultures [2]; [5]): primarily desensitized
dose at which electrical activity was completely inhibited (DRG-SCDH cocultures [2]; [6]): 10 µM
dose at which increased latencies of N1 and N2 are first evident (DRG-SCDH cocultures [2]; [6]): 1 µM
dose at which reshaping of P1 is first evident (DRG-SCDH cocultures [2]; [6]): 1 µM
early phase of P1 (DRG-SCDH cocultures [2]; [7]): specifically decreased
latency of N1 and N2 (DRG-SCDH cocultures [2]; [7]): more sporadically increased

CCN(CC)CC(=O)Nc1c(C)cccc1C [lidocaine]
reversibility of analgesic effect by washout (DRG-SCDH cocultures [2]): Electrical activity is again detectable
additional effects on the shape of the synaptic waveform (DRG-SCDH cocultures [2]; [4]): no additional significant effects
N1 sensitivity: percent change in stimulus intensity required to evoke N1 peak of similar magnitude (DRG-SCDH cocultures [2]; [5]): approximately 60%
dose at which electrical activity was completely inhibited (DRG-SCDH cocultures [2]; [6]): 1000 µM
dose at which increased latencies of N1 and N2 first become apparent (DRG-SCDH cocultures [2]; [6]): 100 µM
amplitude of N1 and N2 (DRG-SCDH cocultures [2]; [7]): decreased the amplitude
latency of N1 and N2 (DRG-SCDH cocultures [2]; [7]): significantly increased
latency, amplitude, or shape of P1 (DRG-SCDH cocultures [2]; [7]): limited effects

CN1CC[C@]23c4c5ccc(O)c4O[C@H]2[C@@H](O)C=C[C@H]3[C@H]1C5.O=S(=O)(O)O [morphine, Morphine sulfate]
semi-spontaneous burst firing in SCDH spheroid [3]: increased in both amplitude and frequency

NC1=N[C@H](O)[C@H]2[C@H]3O[C@]4(O)O[C@@H]([C@@H](O)[C@@]2(N1)[C@@H]4O)[C@]3(O)CO [tetrodotoxin]
N1 (fiber volley) peak of synaptic waveform (DRG-SCDH cocultures [1]): completely blocked
